Screens: PubChem BioAssay, Broad Institute
Sampled rows, rich in hits. Any-hit rate of the full collection: about 2.8%.
miR122 inh – miR-122 Renilla sensor signal increase in Huh7, primary screen, miR-122 inhibitor project, cell-based, single point, plate reader. AID 602342, 2012. activation (reporter increase), % at 12.5 µM. actives 0.3% (n = 340,000). Huh7 miR-122 Renilla luciferase sensor, 48 h; neutral wells = 0, positive control = 100;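 active = mean replicate activation score at least 90 and every replicate individually at or above 90; inconclusive = only one of the two criteria met; inactive = neither criterion met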;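 also: higher luciferase means less miR-122 activity so hits act as miR-122 inhibitors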
Wnt bcat act – Wnt/beta-catenin pathway activators, primary screen, cell-based, plate reader, single point. Wnt/beta-catenin reporter cell assay, activator. AID 743398, 2014. activation, % at 9.35 µM. actives 1.2% (n = 300,000); in the data active = activation above about 30%, passing the limit was not always enough; inconclusive = no clear call, values can overlap the other calls;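 also: 0% = neutral control wells and 100% = positive control wells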
UUG fidelity – alters start codon recognition fidelity in yeast; S. cerevisiae UUG-firefly luciferase reporter, luminescence/redox ratio; activity score, % at 18.7 µM; actives 0.13% (n = 350,000);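 active means replicate mean at a twofold rise or more, about +100% in these data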;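 further: firefly luciferase made from a UUG start codon reports start codon fidelity; reporter light over untreated wells divided by growth signal over untreated wells; some hits fall short of that in this replicate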
MITF TRPM1 HTS – activators of MITF-driven TRPM1 promoter reporter, primary screen, cell-based, SK-MEL-5, luciferase, single point | SK-MEL-5 TRPM1-promoter luciferase, 24 h; % of positive control, neutral wells = 0 | activation, % at 12.5 µM | actives 0.75% (n = 300,000) | AID 588334, 2011;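 active = mean activation of at least 80% with every replicate also reaching 80%; inconclusive = mean reaches 80% but some replicate falls short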;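 also: 0% = neutral control wells and 100% = parthenolide positive control wells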
PglD inh – C. jejuni PglD acetyltransferase inhibitors, primary screen, biochemical, DTNB colorimetric, single point. inhibition, % at 12.5 µM. actives 0.098% (n = 360,000). purified PglD enzyme, DTNB colorimetric CoA detection. UDP-N-acetylbacillosamine N-acetyltransferase PglD (Campylobacter jejuni); in the data active = inhibition above about 16%, passing the limit was not always enough; inconclusive = no clear call, values can overlap the other calls
esBAF inh – Bmi1 luciferase reporter increase in mESCs, primary screen, esBAF inhibitor project, mouse ES cells, Bmi1 luciferase knock-in, single point. reporter increase, % at 12.5 µM. AID 602393, 2012. 24 h; 100% = twice the neutral-well signal. actives 2% (n = 350,000); in the data active = activation above about 40%; inconclusive = no clear call, values can overlap the other calls;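 also: 0% = median of the plate's neutral control wells and 100% = double that signal; a rise in the Bmi1 reporter signal indicates esBAF inhibition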
An asterisk follows results filed as active; ? = inconclusive; / = not tested or not shown; [ ] = dose if it differs, or a comment.

A first look (three entries):
| No. | canonical_smiles | UUG fidelity | MITF TRPM1 HTS | miR122 inh | esBAF inh | PglD inh | Wnt bcat act |
| --- | --- | --- | --- | --- | --- | --- | --- |
| 1 | Clc1ccccc1OCCn1nnc2ccccc21 | -13.1 | 81.1* | -8.3 | 63.0* | -9.3 | 18.8 |
| 2 | Cc1cccc(C)c1OCCn1nnc2ccccc21 | -2.6 | 3.8 | -2.1 | 0.2 | 3.1 | -0.1 |
| 3 | Cc1ccc(C)c(OCCn2nnc3ccccc32)c1 | -20.3 | / | -1.3 | 18.0 | -3.4 | 0.4 |

Main list, repeating the preview:
| No. | canonical_smiles | UUG fidelity | MITF TRPM1 HTS | miR122 inh | esBAF inh | PglD inh | Wnt bcat act |
| --- | --- | --- | --- | --- | --- | --- | --- |
| 1 | Clc1ccccc1OCCn1nnc2ccccc21 | -13.1 | 81.1* | -8.3 | 63.0* | -9.3 | 18.8 |
| 2 | Cc1cccc(C)c1OCCn1nnc2ccccc21 | -2.6 | 3.8 | -2.1 | 0.2 | 3.1 | -0.1 |
| 3 | Cc1ccc(C)c(OCCn2nnc3ccccc32)c1 | -20.3 | / | -1.3 | 18.0 | -3.4 | 0.4 |
| 4 | Cc1cc(C)cc(OCCn2nnc3ccccc32)c1 | -14.3 | 88.4* | 2.2 | 26.1 | -8.4 | 4.4 |
| 5 | CC(C)NC(=O)N(C)C[C@@H]1Oc2cc(C#CC(C)(C)O)ccc2S(=O)(=O)N([C@H](C)CO)C[C@@H]1C | 4.4 | / | -3.7[16.7 µM] | -2.4 | -1.5 | / |
| 6 | CCOc1ccccc1C(=O)Nc1cccc(-c2ccc(N3CCOCC3)nn2)c1 | -18.5 | 110.8* | 4.6 | 62.8* | -2.9 | ? |
| 7 | CCC(=O)Nc1cccc(-c2ccc(N3CCN(C)CC3)nn2)c1 | -21.1 | 85.0* | 8.2 | 41.3* | -0.8 | / |
| 8 | COc1ccc(C(=O)Nc2cccc(-c3ccc(N4CCOCC4)nn3)c2)cc1OC | -5.6 | 96.0* | -9.7 | 19.4 | 0.0 | 26.3 |
| 9 | COc1cccc(C(=O)Nc2cccc(C(=O)N3CCOCC3)c2)c1 | / | -0.4 | / | / | / | 1.1 |
| 10 | COc1cccc(C(=O)Nc2cccc(-c3ccc(N4CCOCC4)nn3)c2)c1OC | 6.3 | ? | 1.9 | 19.8 | -3.9 | 28.2 |
| 11 | CCC(=O)Nc1cccc(-c2ccc(N3CCCCC3)nn2)c1 | -37.6 | 17.2 | -8.5 | -5.3 | -1.8 | 29.0 |
| 12 | COc1cccc(C(=O)Nc2cccc(-c3ccc(N4CCOCC4)nn3)c2)c1 | / | 136.9* | -6.9 | 66.6* | / | 22.4 |
| 13 | O=C(Nc1cccc(-c2ccc(N3CCOCC3)nn2)c1)c1ccc(F)cc1F | -18.3 | ? | 3.8 | / | 5.1 | 19.1 |
| 14 | COc1ccc(CNC(=O)C[C@@H]2CC[C@@H]3[C@H](COc4ccc(NC(=O)C(C)C)cc4C(=O)N3C)O2)cc1 | / | / | -20.0[16.7 µM] | 2.4 | / | / |
| 15 | COCC(=O)N1[C@@H]2c3ccc(C4=CCCC4)c(=O)n3C[C@@H]2[C@@H](CO)[C@@H]1C(=O)N1CCCCC1 | 25.3 | / | 0.5[16.7 µM] | 0.6 | -1.1 | / |
| 16 | COc1ccc(CNC(=O)C[C@@H]2CC[C@H]3[C@@H](COc4ccc(NC(C)=O)cc4C(=O)N3C)O2)cc1 | -12.0 | / | -1.0[16.7 µM] | 5.1 | 1.8 | / |
| 17 | CO[C@@H]1CN(C)C(=O)c2ccc(NS(=O)(=O)c3cccc(F)c3)cc2OC[C@H](C)N(Cc2cc(F)ccc2F)C[C@H]1C | -3.1 | / | / | 0.5 | 0.3 | / |
| 18 | CCOc1ccc(C(=O)Nc2cccc(-c3ccc(N4CCOCC4)nn3)c2)cc1OCC | -20.3 | 106.3* | -1.5 | 64.0* | -4.9 | 22.4 |
| 19 | CC(=O)c1ccc(S(=O)(=O)Nc2cccc(-c3ccc(N4CCOCC4)nn3)c2)cc1 | 1.3 | 57.6 | 24.9 | 32.6 | 4.9 | 11.5 |
| 20 | CCCC(=O)Nc1ccc2c(c1)C(=O)N(C)C[C@H](OC)[C@@H](C)CN(C(=O)c1cnccn1)[C@H](C)CO2 | 6.0 | / | -3.2[16.7 µM] | 1.1 | 6.5 | / |
| 21 | COc1ccc(C=NNc2ccc([N+](=O)[O-])cn2)cc1 | 0.1 | 74.3 | / | 52.4* | 1.6 | 15.9 |
| 22 | CN(C)c1ccc(Nc2ccc([N+](=O)[O-])cn2)cc1 | -4.5 | / | -3.1 | 50.5* | -10.6 | 8.8 |
| 23 | O=[N+]([O-])c1ccc(NN=Cc2ccccc2)nc1 | / | 147.9* | / | / | / | 49.5* |
| 24 | COc1ccc(N/N=C(/Oc2ccc([N+](=O)[O-])cc2)C(C)=O)cc1 | -12.3 | -7.5 | -7.5 | / | -2.0 | 0.7 |
| 25 | COc1ccc(NN=Nc2ccc([N+](=O)[O-])cc2)cc1 | -25.9 | 98.9* | 6.7 | 49.5* | -5.4 | 7.6 |
| 26 | O=[N+]([O-])c1ccc(NN=Cc2ccccc2O)nc1 | 5.1 | 2.8 | -4.7 | -47.7 | -3.0 | -7.9 |
| 27 | Cc1noc(C)c1S(=O)(=O)N(C)C[C@@H]1Oc2ccc(NC(=O)CCCN(C)C)cc2C(=O)N([C@@H](C)CO)C[C@@H]1C | -3.5 | / | -1.5[16.7 µM] | 2.9 | 0.2 | / |
| 28 | Cc1ccccc1S(=O)(=O)N1CC[C@@H]2[C@H]1c1cc(-c3ccc(C#N)cc3)ccc1N[C@@H]2CO | 1.1 | / | 2.2[16.7 µM] | -3.2 | 0.1 | / |
| 29 | CCN(CC)c1ccc(C=NNc2ccc([N+](=O)[O-])cn2)cc1 | -25.0 | 44.0 | 2.5 | / | -3.1 | 48.4* |
| 30 | O=[N+]([O-])c1ccc(NN=Cc2ccc(O)cc2)nc1 | -18.2 | 44.0 | / | 95.1* | -0.9 | 67.4* |
| 31 | O=[N+]([O-])c1ccc(N/N=C/c2cccs2)nc1 | / | 108.8* | / | / | / | 55.9* |
| 32 | O=[N+]([O-])c1ccc(N/N=C\c2cccn2-c2ccccc2)nc1 | -10.8 | 16.3 | -9.2 | -10.6 | -25.4 | / |
| 33 | COc1ccc(C#Cc2ccc3c(c2)O[C@@H](CN(C)C(C)=O)[C@@H](C)CN([C@H](C)CO)S3(=O)=O)cc1 | 18.7 | / | 3.3[16.7 µM] | -1.4 | 4.9 | / |
| 34 | C[C@@H]1CN([C@H](C)CO)S(=O)(=O)c2ccc(C#C[C@@H](C)O)cc2O[C@H]1CN(C)C(=O)Nc1ccccc1 | 21.4 | / | 0.0[16.7 µM] | -2.7 | -2.0 | / |
| 35 | Cc1nnc2sc(-c3ccc(N(C)C)cc3)nn2c1=O | -12.1 | 108.7* | 10.0 | -11.4 | -4.8 | 24.4 |
| 36 | CC(C)CC(=O)NC(=S)Nc1ccc(Cl)cn1 | -20.2 | 68.7 | -1.9 | 48.6* | -3.2 | 7.9 |
| 37 | CCc1ccc(NC(=S)NC(=O)CC(C)C)cc1 | / | 50.7 | / | / | / | 61.0* |
| 38 | CC(=O)CC(=O)Nc1ccc(Cl)cn1 | / | -1.8 | / | / | / | 1.2 |
| 39 | CC(C)(C)[S@@](=O)N1Cc2cc(C(=O)N3CCc4ccccc4C3)nc(-c3cccc(-c4ccncc4)c3)c2[C@H]1CCO | / | / | / | 13.1 | 5.4 | / |
| 40 | C[C@@H]1CCCCO[C@@H](CN(C)S(=O)(=O)c2cn(C)cn2)[C@@H](C)CN([C@H](C)CO)C(=O)c2cc(NS(=O)(=O)c3ccc(Cl)cc3)ccc2O1 | 14.5 | / | 38.5[16.7 µM] | -12.9 | 8.1 | / |
| 41 | CN(C)C(=O)C[C@H]1C=C[C@@H](NS(=O)(=O)c2ccccc2)[C@H](CO)O1 | -9.5 | / | 14.5[16.7 µM] | 2.2 | 0.9 | / |
| 42 | O=C1C(=Cc2ccccn2)CCc2ccccc21 | -41.9 | / | -1.3 | 63.7* | -0.4 | ? |
| 43 | Cc1ccsc1/C=C1\CCc2ccccc2C1=O | / | / | 5.2 | -33.8 | / | / |
| 44 | Cc1ccccc1/C=C1\CCCc2ccccc2C1=O | -7.4 | / | -4.1 | 82.0* | 4.6 | 77.4* |
| 45 | O=C1/C(=C\c2ccc3ccccc3c2)CCCc2ccccc21 | -30.8 | 41.5 | 14.4 | 30.4 | -2.9 | / |
| 46 | COC(=O)[C@@H]1[C@@H](CO)[C@@H]2Cn3c(ccc(-c4cccc(F)c4)c3=O)[C@@H]2N1S(C)(=O)=O | / | / | / | -2.3 | -2.6 | / |
| 47 | C[C@@H]1CN([C@H](C)CO)S(=O)(=O)c2ccc(-c3ccc(C(=O)N(C)C)cc3)cc2O[C@@H]1CN(C)C(=O)C1CCC1 | / | / | -42.9[16.7 µM] | 1.8 | -3.2 | / |
| 48 | COC(=O)c1ccc(CN2C(=O)NC3(CCCCC3)C2=O)cc1 | / | 49.8 | -1.1 | 72.5* | / | 17.2 |

Molecules shown so far with a thiophene ring, fused or not (two):
| No. | canonical_smiles | UUG fidelity | MITF TRPM1 HTS | miR122 inh | esBAF inh | PglD inh | Wnt bcat act |
| --- | --- | --- | --- | --- | --- | --- | --- |
| 31 | O=[N+]([O-])c1ccc(N/N=C/c2cccs2)nc1 | / | 108.8* | / | / | / | 55.9* |
| 43 | Cc1ccsc1/C=C1\CCc2ccccc2C1=O | / | / | 5.2 | -33.8 | / | / |
